Results reported in paper PMC5933747 (PLoS ONE, 2018).

Chains of the proteins cited; added tags and fusions are not shown.
UniProt Q15858, whole entry: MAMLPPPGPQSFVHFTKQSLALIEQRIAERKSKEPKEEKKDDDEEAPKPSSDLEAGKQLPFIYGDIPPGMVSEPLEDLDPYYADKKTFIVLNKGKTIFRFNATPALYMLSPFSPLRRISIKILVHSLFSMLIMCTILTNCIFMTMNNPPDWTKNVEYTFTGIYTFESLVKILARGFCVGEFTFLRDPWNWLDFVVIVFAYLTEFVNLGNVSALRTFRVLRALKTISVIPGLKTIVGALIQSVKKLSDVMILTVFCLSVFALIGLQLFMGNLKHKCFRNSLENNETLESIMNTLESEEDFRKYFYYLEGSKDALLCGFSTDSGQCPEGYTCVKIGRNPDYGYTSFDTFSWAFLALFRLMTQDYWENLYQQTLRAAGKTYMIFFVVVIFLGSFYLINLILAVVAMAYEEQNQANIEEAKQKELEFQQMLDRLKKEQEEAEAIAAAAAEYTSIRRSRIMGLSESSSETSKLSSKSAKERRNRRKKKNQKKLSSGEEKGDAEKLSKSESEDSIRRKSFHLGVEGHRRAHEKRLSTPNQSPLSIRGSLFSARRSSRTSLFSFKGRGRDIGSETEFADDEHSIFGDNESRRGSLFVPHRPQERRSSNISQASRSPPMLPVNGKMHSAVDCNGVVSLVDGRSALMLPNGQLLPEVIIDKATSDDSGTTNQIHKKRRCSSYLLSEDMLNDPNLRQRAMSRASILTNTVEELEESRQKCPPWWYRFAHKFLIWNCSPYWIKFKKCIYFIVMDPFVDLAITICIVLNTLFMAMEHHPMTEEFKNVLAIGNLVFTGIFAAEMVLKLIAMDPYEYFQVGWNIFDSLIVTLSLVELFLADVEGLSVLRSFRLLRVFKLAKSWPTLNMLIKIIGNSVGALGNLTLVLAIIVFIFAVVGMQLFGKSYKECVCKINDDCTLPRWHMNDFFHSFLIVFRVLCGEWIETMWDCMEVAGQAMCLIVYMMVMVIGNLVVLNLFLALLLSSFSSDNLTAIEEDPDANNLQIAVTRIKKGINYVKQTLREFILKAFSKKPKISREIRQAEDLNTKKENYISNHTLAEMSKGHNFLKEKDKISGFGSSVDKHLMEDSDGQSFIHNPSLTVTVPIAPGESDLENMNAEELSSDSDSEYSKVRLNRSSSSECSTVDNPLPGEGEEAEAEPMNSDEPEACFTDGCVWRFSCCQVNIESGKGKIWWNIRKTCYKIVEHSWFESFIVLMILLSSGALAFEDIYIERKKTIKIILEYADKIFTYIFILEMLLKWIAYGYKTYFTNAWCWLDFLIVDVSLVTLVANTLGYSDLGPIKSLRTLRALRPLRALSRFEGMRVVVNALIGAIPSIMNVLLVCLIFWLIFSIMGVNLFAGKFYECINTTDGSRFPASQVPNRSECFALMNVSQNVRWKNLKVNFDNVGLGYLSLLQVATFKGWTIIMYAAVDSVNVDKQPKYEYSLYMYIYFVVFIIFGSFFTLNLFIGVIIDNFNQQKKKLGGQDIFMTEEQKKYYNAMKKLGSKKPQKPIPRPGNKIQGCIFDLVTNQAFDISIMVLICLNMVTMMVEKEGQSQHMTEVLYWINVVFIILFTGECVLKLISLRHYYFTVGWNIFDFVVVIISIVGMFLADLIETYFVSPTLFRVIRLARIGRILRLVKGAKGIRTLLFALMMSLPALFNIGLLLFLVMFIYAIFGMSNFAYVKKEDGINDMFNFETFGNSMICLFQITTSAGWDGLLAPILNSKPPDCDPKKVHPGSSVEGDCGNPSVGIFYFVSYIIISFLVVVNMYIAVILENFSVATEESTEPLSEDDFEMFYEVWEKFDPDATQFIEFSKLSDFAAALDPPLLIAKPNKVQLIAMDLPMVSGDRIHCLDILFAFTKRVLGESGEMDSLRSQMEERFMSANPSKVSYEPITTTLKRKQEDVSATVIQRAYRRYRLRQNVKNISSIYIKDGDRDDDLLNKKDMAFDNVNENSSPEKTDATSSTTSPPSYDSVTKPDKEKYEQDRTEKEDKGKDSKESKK

How the values were obtained:
[1] = system: capsaicin-induced action potential firing in rat DRG neurons; assay: Multi-electrode array (MEA), capsaicin-induced action potential firing in rat DRG neurons; type: cell-based; settings: cultured rat DRG neurons, 25 nM capsaicin (EC80) co-applied, 37°C, six replicate wells, read-out: IC50 for block of capsaicin-induced action potential firing
Method: Action potentials of cultured postnatal day 2 rat DRG neurons (Lonza, Walkersville, MD) were detected using the Maestro multi-well plate-based MEA system (Axion Biosystems, Atlanta, GA). A 48-well MEA plate containing 16 electrodes/well was pre-coated with 10μL 0.1% PEI (Sigma-Aldrich, St. Louis, MO) in borate buffer (50mM boric acid (Fisher Scientific, Waltham, MA), 12mM sodium tetraborate (Sigma-Aldrich), pH 8.4). The plate was incubated at 37°C for 2h, washed 3-times with 200μL sterile ddH2O and then air dried. Next, 10μL of 20μg/mL laminin (Sigma) in Primary Neural Basal Medium (PNBM) (Lonza) was spotted over the PEI-treated electrode surface and incubated for 2h at 37°C. Laminin was removed and immediately replaced with 10μL/well of 7x10^6 cells/mL rat DRGs in PNBM. […] Baseline spontaneous firing was recorded for approximately 1 min. Twenty-five μL of PNBM, 325nM capsaicin (MP Biomedicals, 25nM final, EC80) in PNBM, or 325nM capsaicin plus test compound was then added, and action potentials were continuously recorded for another 2 min with six replicate wells used per condition. MEA data were analyzed using Axion Integrated Studio AxIS2.1 (Axion Biosystems) and GraphPad Prism version 7.02 for Windows (GraphPad Software, La Jolla, CA). […]

[2] = system: mechanically-induced C-fiber action potential firing; settings: 16 μM (highest concentration tested); 150 mN mechanical stimulus; mouse skin-saphenous nerve
Method: Male C57BL/6 mice (Charles River Laboratories, San Diego, CA) between 2–3 months old (136 total mice used in study) were housed under standard temperature conditions (22–24°C) and illumination (12-hour light/dark cycle with lights on at 6:30 AM) with ad libitum access to fresh water and food. Mice were euthanized by CO2 followed by cervical dislocation. Experimental procedures for mouse skin-saphenous nerve studies were conducted as previously described with the use of 0.1% BSA (Acros) in the bath solution to decrease non-specific loss of peptide to chamber components [32]. Briefly, the saphenous nerve and skin from the left medial dorsum of the hind paw were dissected and mounted in a custom-made organ bath chamber. The proximal saphenous nerve end was passed through a hole into a separate recording chamber, desheathed and teased into fine fibers for extracellular recording. Mechanical responses were evoked by square force waves using a mechanical stimulator before and following peptide application to a small area of the corium (dermis) side of the skin in a custom-made stainless steel ring. Recording and analysis of C-fiber-mediated action potentials were performed in a blinded manner with respect to peptide treatment. […]

human NaV1.7 = human NaV1.7 (Homo sapiens, UniProt Q15858); assay: Block of sodium currents, human NaV1.7 in heterologous HEK293 cells (platform not stated); type: cell-based; settings: highest concentration tested 1 μM
mouse NaV1.7 = assay: Block of sodium currents, mouse NaV1.7 in heterologous HEK293 cells (platform not stated); type: cell-based; settings: highest concentration tested 1 μM

SMILES: C#CC[C@H](N)C(=O)N[C@@H](Cc1ccc(O)cc1)C(=O)N[C@H]1CSSC[C@@H]2NC(=O)[C@@H]3CSSC[C@@H](C(=O)N[C@@H](CCCNC(=N)N)C(=O)N[C@@H](CCCCN)C(=O)N[C@@H](CCC(=O)O)C(=O)N[C@H](C(N)=O)[C@@H](C)CC)NC(=O)[C@H](Cc4c[nH]c5ccccc45)NC(=O)[C@H](CC(C)C)NC(=O)[C@H](CCCCN)NC(=O)[C@H](CSSC[C@H](NC(=O)[C@H]([C@@H](C)O)NC(=O)[C@H](Cc4c[nH]c5ccccc45)NC(=O)[C@H](CCCC)NC(=O)[C@H](Cc4c[nH]c5ccccc45)NC(=O)[C@H](CCCCN)NC(=O)[C@H](CCC(N)=O)NC1=O)C(=O)N[C@@H](CC(=O)O)C(=O)N[C@@H](CO)C(=O)N[C@@H](CCCCN)C(=O)N[C@@H](CCCNC(=N)N)C(=O)N[C@@H](C)C(=O)N3)NC(=O)[C@H](CCCNC(=N)N)NC(=O)[C@H](CCC(=O)O)NC(=O)CNC(=O)[C@H](CCC(=O)O)NC2=O [AM-8394, Pra-[Nle6;Glu19,28]JzTx-V(1–29)]
- IC50 [1]: > 1000 nM
- effect on mechanically-induced C-fiber spiking at 16 μM [2]: no effect on spiking
- block of sodium currents, human NaV1.7 (human NaV1.7): did not potently block sodium currents
- block of sodium currents, mouse NaV1.7 (mouse NaV1.7): did not potently block sodium currents
